This assay relates to Human PBMC from B Lymphoma Patients. The settings on record: 24 hours; LPS 20 μg/ml, HSA and conjugates 100 μg/ml.

For lipopolysaccharide [LPS], the “IL-10, B-LYMPHOMA-1” value was 6053 µg/mL; the “IL-10, B-LYMPHOMA-2” value stood at 201 µg/mL; the “IL-10, B-LYMPHOMA-3” value amounted to 1049 µg/mL.

Source of the values: US6540999B1, “Immunomodulatory methods using Lewisx oligosacchardies” (President and Fellows of Harvard College, priority 1996, dated 2003).
